Values joined by “and” are separate entries in the source; they are usually repeats but may differ in a detail not shown here. Equal entries are not always repeated. “Also recorded” adds a separate entry of the source.
Assay: Safety and tolerability (AEs by CTCAE v4.0, DLTs, laboratory, ECG/ECHO, ophthalmic) in Phase I study NCT01213160
Assay type: in vivo, human
Procedure: A ‘rolling six’ design was used, with a minimum of three evaluable patients per cohort. If one patient experienced a dose-limiting toxicity (DLT), additional patients were enrolled up to a maximum of six evaluable patients. DLTs were evaluated during the washout period and the first 21-day treatment schedule. […] If two or more evaluable patients experienced a DLT, this dosing level was considered as non-tolerable. It was planned that the maximum tolerated dose (MTD) would be defined either as the dosing level below the non-tolerated dose or such that a dose between the non-tolerated dose and the last tolerated dose may be investigated. Patients who tolerated AZD4547 treatment and received clinical benefit were permitted to continue treatment until they experienced progressive disease or withdrew consent.
Safety and tolerability were assessed during study treatment and until 28 days after the final dose. Adverse events (AEs) were evaluated according to CTCAE (version 4.0), and dose interruptions and reductions were recorded. Laboratory findings and vital signs were analysed. Cardiac monitoring (echocardiogram [ECHO] and ECG) and ophthalmic assessments were also conducted.

## AZD4547
Part A, 160 mg qd (N = 15)
  Nausea, SAE grade ≥3 event: 0 (0) n (%)
  Neutropenia, CTCAE grade ≥3 event: 0 (0) n (%)
  Patients with AE of any grade: 14 (93.3) n (%)
  Patients with CTCAE grade ≥3 event: 0 (0) n (%)
  Patients with SAE grade ≥3 event: 0 (0) n (%)
  Pneumonia, CTCAE grade ≥3 event: 0 (0) n (%)
  Stomatitis, AE of any grade: 3 (20.0) n (%)
  Stomatitis, CTCAE grade ≥3 event: 0 (0) n (%)
  Stomatitis, SAE grade ≥3 event: 0 (0) n (%)
  Vomiting, AE of any grade: 2 (13.3) n (%)
Part A, 80 mg bid
  Discontinuation for AEs, patients: 3 n
  Patients with an AE of CTCAE grade ≥3: 10.0%
  SAEs deemed causally related to AZD4547 treatment: Only one SAE, decreased appetite and nausea
Part B
  Decreased appetite, patients: 50.0%
  Dry mouth, patients: 50.0%
  Dysgeusia, patients: 75.0%
  Hyperphosphataemia, patients: 50.0%
  Nausea, patients: 50.0%
  Patients with AEs leading to discontinuation: None of the patients
  Patients with SAEs: 25.0%
  Patients with an AE of CTCAE grade ≥3: 75.0%
  Patients with dose interruption as a result of an AE: 25.0%
  Patients with dose reductions after reporting AEs: 50.0%
  Patients with treatment-related increases in blood phosphate levels: 50.0%
  Relatedness of CTCAE grade ≥3 AEs to treatment: not deemed to be treatment related
  Stomatitis, patients: 50.0%
Part B, 80 mg bid (N = 4)
  Decreased appetite, AE of any grade: 2 (50.0) n (%)
  Decreased appetite, CTCAE grade ≥3 event (first line, r20): 2 (50.0) n (%)
  Decreased appetite, CTCAE grade ≥3 event (second line, r24): 0 (0) n (%)
  Decreased appetite, SAE grade ≥3 event: 1 (25.0) n (%)
  Detachment of retinal pigment epithelium, AE of any grade: 1 (25.0) n (%)
  Diarrhoea, AE of any grade: 1 (25.0) n (%)
  Dry mouth, AE of any grade: 2 (50.0) n (%)
  Dry skin, AE of any grade: 0 (0) n (%)
  Dysgeusia, AE of any grade: 3 (75.0) n (%)
  Hyperphosphataemia, AE of any grade: 2 (50.0) n (%)
  Hypoglycaemia, CTCAE grade ≥3 event: 1 (25.0) n (%)
  Increased alanine aminotransferase, CTCAE grade ≥3 event: 0 (0) n (%)
  Malaise, AE of any grade: 1 (25.0) n (%)
  Nausea, AE of any grade: 2 (50.0) n (%)
  Nausea, CTCAE grade ≥3 event: 0 (0) n (%)
  Nausea, SAE grade ≥3 event: 0 (0) n (%)
  Neutropenia, CTCAE grade ≥3 event: 1 (25.0) n (%)
  Patients with AE of any grade: 4 (100) n (%)
  Patients with CTCAE grade ≥3 event: 3 (75.0) n (%)
  Patients with SAE grade ≥3 event: 1 (25.0) n (%)
  Pneumonia, CTCAE grade ≥3 event: 1 (25.0) n (%)
  Stomatitis, AE of any grade: 2 (50.0) n (%)
  Stomatitis, CTCAE grade ≥3 event: 0 (0) n (%)
  Stomatitis, SAE grade ≥3 event: 0 (0) n (%)
  Vomiting, AE of any grade: 1 (25.0) n (%)
Part B, RD of 80 mg bid
  Dose-limiting toxicities (DLTs): No DLTs were observed
Total Part A (N = 30)
  Decreased appetite, CTCAE grade ≥3 event (first line, r20): 1 (3.3) n (%)
  Decreased appetite, CTCAE grade ≥3 event (second line, r24): 1 (3.3) n (%)
  Decreased appetite, SAE grade ≥3 event: 1 (3.3) n (%)
  Detachment of retinal pigment epithelium, AE of any grade: 7 (23.3) n (%)
  Diarrhoea, AE of any grade: 12 (40.0) n (%)
  Dry mouth, AE of any grade: 10 (33.3) n (%)
  Dry skin, AE of any grade: 9 (30.0) n (%)
  Dysgeusia, AE of any grade: 14 (46.7) n (%)
  Hyperphosphataemia, AE of any grade: 11 (36.7) n (%)
  Hypoglycaemia, CTCAE grade ≥3 event: 1 (3.3) n (%)
  Increased alanine aminotransferase, CTCAE grade ≥3 event: 1 (3.3) n (%)
  Malaise, AE of any grade: 6 (20.0) n (%)
  Nausea, AE of any grade: 8 (26.7) n (%)
  Nausea, CTCAE grade ≥3 event: 2 (6.7) n (%)
  Nausea, SAE grade ≥3 event: 1 (3.3) n (%)
  Neutropenia, CTCAE grade ≥3 event: 2 (6.7) n (%)
  Patients with CTCAE grade ≥3 event: 3 (10.0) n (%)
  Patients with SAE grade ≥3 event: 2 (6.7) n (%)
  Stomatitis, AE of any grade: 12 (40.0) n (%)
  Stomatitis, CTCAE grade ≥3 event: 1 (3.3) n (%)
  Stomatitis, SAE grade ≥3 event: 1 (3.3) n (%)
  Vomiting, AE of any grade: 6 (20.0) n (%)
Across the four cohorts (40, 80, 120 mg bid; 160 mg qd)
  Dose-limiting toxicities (DLTs): No dose-limiting toxicities were observed; also recorded: No DLTs were observed; also recorded: no DLTs were reported
All patients (Parts A and B)
  Diarrhoea, AE any grade, patients: 38%
  Dry mouth, AE any grade, patients: 35%
  Dysgeusia, AE any grade, patients: 50%
  Hyperphosphataemia, AE any grade, patients: 38%
  Stomatitis, AE any grade, patients: 41%
All phosphate-related events
  Grade of phosphate-related events: ≤ 3 CTCAE grade
Expansion phase, RD of 80 mg bid, FGFR-amplified tumours
  Tolerability: well tolerated
In vivo
  Cardiac toxicity: no significant cardiac toxicity was reported
  Changes in vital or physical signs: No clinically relevant changes
  Patients with absolute LVEF value of <55%: three patients
  Patients with decrease in LVEF of ≥10 percentage points: Three patients
  Severity and reversibility of AEs: generally mild to moderate and reversible upon withdrawal of treatment
Mainly a one-grade shift
  Transaminases and blood creatinine: A trend in mean-value increase
One death, 160 mg qd, following disease progression
  Death during study period, relation to treatment: not causally related to AZD4547 treatment
One patient (120 mg bid) with normal ECG at baseline
  Abnormal ECG with treatment: not considered to be clinically relevant
Overall (7/34)
  Retinal events leading to study-drug discontinuation, patients: 20.5%
Overall (30/34)
  Patients with AEs considered causally related to AZD4547: 88.2%
Overall (N = 34)
  Decreased appetite, grade ≥3 AE, patients: 8.8%
  Nausea, grade ≥3 AE, patients: 5.8%
  Neutropenia, grade ≥3 AE, patients: 9% and 8.8%

From article PMC5502072, “Safety, tolerability and pharmacokinetics of the fibroblast growth factor receptor inhibitor AZD4547 in Japanese patients with advanced solid tumours: a Phase I study” (Investigational New Drugs, 2017)
